Results from patent US20250186496A1, “METHODS AND COMPOSITIONS FOR CONTROLLING T CELL ACTIVATION” (The General Hospital Corporation, priority 2022, published 2025).

Tested on: CAR19 cells
Test: Long-term expansion on weekly exposure to irradiated CD19+K562s with or without lenalidomide
Settings: 1 μM lenalidomide; weekly 1:1 irradiated CD19+K562s

SMILES: Nc1cccc2c1CN(C1CCC(=O)NC1=O)C2=O (stereo not shown) [lenalidomide]
- effect of lenalidomide on expansion of CAR19 cells with mbdIL7: decreased expansion of CAR19 cells with mdbIL7 to the same level as CAR19 cells without mdbIL7
